{"source": "patent US20250049928A1", "about": "“ANESTHETIC PRODRUGS AND DERIVATIVES THEREOF FOR PROLONGED SENSORY SELECTIVE NERVE BLOCKAGE” (The Board of Trustees of The University of Alabama, priority 2023, published 2025)", "key": {"[1]": {"test_system": "sciatic nerves and surrounding tissues", "details": "rat, in vivo"}, "rats": {"test_system": "rats", "details": "rat, in vivo"}, "[2]": {"test_system": "Esterase (from porcine liver)", "details": "pig"}, "sciatic nerve": {"test_system": "sciatic nerve", "details": "rat, not told"}}}
{"substance": "glucuronic acid-linked bupivacaine [GluA-Bup]", "values": [{"measurement": "appearance of surrounding tissues", "setting": "[1]", "value": "no signs of edema or discoloration"}, {"measurement": "microscopic examination for myotoxicity or inflammation", "setting": "[1]", "value": "did not reveal any significant myotoxicity or inflammatory responses"}]}
{"substance": "glycine-capsaicin prodrug [Gly-CAP prodrug]", "values": [{"measurement": "rats exhibiting irreversible nerve blockade", "setting": "rats", "value": "one rat"}, {"measurement": "rats that developed contralateral nociceptive axon block", "setting": "rats", "value": 2, "unit": "rats"}, {"measurement": "rats that experienced a seizure", "setting": "rats", "value": 1, "unit": "in 4 rats"}, {"measurement": "Half-lives", "setting": "[2]", "value": "<10", "unit": "min"}]}
{"substance": "poly (ethylene glycol)750-fluorescein [PEG750-FL]", "values": [{"measurement": "fluorescence distribution / permeation into the sciatic nerve", "setting": "sciatic nerve", "value": "weak fluorescent signals"}]}
